Laboratory results taken from patent US8143241B2, “DNA damage repair inhibitors for treatment of cancer” (Kudos Pharmaceuticals Limited, priority 2003, dated 2012).

By UniProt entry, the sequences of proteins in these tests, tags left out.
UniProt P09874, whole entry: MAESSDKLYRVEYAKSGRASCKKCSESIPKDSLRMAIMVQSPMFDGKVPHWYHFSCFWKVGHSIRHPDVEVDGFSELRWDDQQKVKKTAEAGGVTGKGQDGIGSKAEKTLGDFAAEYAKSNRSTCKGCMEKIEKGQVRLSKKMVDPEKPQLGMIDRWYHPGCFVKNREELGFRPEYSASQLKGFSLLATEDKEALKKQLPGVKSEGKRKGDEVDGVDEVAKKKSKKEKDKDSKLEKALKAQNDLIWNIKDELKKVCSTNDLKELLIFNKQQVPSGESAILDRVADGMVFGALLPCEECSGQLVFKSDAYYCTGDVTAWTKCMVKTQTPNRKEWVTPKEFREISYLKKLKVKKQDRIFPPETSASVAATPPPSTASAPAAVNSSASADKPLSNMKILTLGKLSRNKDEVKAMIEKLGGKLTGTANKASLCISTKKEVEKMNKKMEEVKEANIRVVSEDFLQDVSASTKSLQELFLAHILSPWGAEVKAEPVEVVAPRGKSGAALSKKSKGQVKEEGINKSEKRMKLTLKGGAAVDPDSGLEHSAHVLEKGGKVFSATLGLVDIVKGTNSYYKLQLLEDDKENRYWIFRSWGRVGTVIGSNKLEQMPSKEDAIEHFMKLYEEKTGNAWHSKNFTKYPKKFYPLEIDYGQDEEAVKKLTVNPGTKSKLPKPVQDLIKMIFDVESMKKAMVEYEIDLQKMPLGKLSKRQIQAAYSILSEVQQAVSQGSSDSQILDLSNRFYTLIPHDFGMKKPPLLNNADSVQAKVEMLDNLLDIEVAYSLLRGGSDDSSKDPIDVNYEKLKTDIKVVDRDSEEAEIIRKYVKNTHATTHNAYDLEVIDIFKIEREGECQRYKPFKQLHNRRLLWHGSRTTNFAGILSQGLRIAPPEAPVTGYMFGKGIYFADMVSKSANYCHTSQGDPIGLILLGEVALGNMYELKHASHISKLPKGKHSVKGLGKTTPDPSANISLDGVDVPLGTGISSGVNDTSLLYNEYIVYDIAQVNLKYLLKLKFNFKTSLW

Columns and labels:
Brca1 deficient ES cells = assay: Clonogenic assay, continuous exposure, Brca1 deficient ES cells
MCF7-scrambled cells = assay: Clonal survival, BRCA1 wild-type MCF7-scrambled cells; format: cell-based, human; settings: continuous exposure 12-14 days
wild-type ES cells = assay: Rad51 focus formation, wild-type ES cells; settings: 48 hours
[1] = system: Fancd2−/−, Fanca−/−, Fancc−/− and Fanca−/−c−/− fibroblasts; assay: Clonogenic survival, Fanconi anaemia mouse fibroblasts; settings: continuous exposure 12-14 days
MCF7-3.23 cells = assay: Clonal survival, BRCA1 silenced MCF7-3.23 cells; format: cell-based, human; settings: MCF7-3.23, continuous exposure 12-14 days
Brca2 deficient ES cells = assay: Clonogenic assay, continuous exposure, Brca2 deficient ES cells
PARP-1 = PARP-1 (Homo sapiens, UniProt P09874); assay: PARP-1 enzyme activity inhibition; format: biochemical; settings: PARP-1 and PARP-2, compared with KU0058684 and KU0058948

## O=c1[nH]nc(Cc2ccccc2)c2ccccc12
Brca1 deficient ES cells
  sensitivity of Brca1 deficient cells compared to otherwise isogenic cells: no selective effect
MCF7-scrambled cells
  sensitivity (clonal survival): Neither MCF7-scrambled nor MCF7-3.23 cells displayed significant sensitivity
wild-type ES cells
  Rad51 foci formation: did not induce Rad51 focus formation
[1]
  sensitivity of FA gene deficient fibroblasts compared to wild-type cells: no difference in sensitivity
MCF7-3.23 cells
  sensitivity (clonal survival): Neither MCF7-scrambled nor MCF7-3.23 cells displayed significant sensitivity
Brca2 deficient ES cells
  sensitivity of Brca2 deficient cells compared to otherwise isogenic cells: no selective effect
PARP-1
  times less effective in the inhibition of these enzymes: 250 ×
